Measured values reported in BindingDB's records for doi:10.7270/Q2SX6GDH (n/a, 1996).

Amino acid sequences for entries named in this document (tags omitted).
UniProt P14842, whole entry: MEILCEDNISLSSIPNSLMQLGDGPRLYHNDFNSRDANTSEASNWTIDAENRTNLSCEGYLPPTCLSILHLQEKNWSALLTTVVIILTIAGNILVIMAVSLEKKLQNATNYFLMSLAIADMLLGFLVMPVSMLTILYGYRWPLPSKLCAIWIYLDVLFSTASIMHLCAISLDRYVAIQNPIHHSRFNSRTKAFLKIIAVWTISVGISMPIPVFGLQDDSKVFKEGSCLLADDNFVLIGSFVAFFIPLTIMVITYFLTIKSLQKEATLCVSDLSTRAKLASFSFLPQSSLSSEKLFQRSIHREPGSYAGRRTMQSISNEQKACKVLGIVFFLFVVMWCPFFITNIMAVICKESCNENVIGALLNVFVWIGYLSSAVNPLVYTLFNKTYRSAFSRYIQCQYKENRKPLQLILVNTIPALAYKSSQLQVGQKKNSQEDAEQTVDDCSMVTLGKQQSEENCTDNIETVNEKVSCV
UniProt P08908, whole entry: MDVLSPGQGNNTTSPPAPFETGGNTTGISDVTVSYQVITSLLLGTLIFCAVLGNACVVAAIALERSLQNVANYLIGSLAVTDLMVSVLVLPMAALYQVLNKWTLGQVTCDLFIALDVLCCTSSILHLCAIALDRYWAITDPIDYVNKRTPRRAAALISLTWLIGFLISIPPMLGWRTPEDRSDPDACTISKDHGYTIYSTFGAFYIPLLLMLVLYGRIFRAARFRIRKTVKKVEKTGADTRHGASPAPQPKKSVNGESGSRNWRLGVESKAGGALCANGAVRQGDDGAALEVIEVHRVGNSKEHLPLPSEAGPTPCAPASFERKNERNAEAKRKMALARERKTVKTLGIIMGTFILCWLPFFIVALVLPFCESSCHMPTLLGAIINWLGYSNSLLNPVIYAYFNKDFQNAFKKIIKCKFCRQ

Key:
[1] = biological target: 5-hydroxytryptamine receptor 2A (Rattus norvegicus, UniProt P14842); assay: ChEBML_2582
Method: Compound was tested for its ability to displace [3H]DOB from 5-hydroxytryptamine 2A receptor in rat cortex homogenates

[2] = biological target: 5-hydroxytryptamine receptor 1A (Homo sapiens, UniProt P08908); assay: ChEBML_1074
Method: Compound was tested for its ability to displace [3H]8-OH-DPAT from 5-hydroxytryptamine 1A receptor in pig cortex

## CNS(=O)(=O)Cc1ccc2[nH]cc(CCN(C)C)c2c1 [Sumax]
[1]
  IC50: > 10000 nM
[2]
  IC50: 540 nM
